Experimental data reported in PubChem BioAssay AID598 (SRMLSC, 2007).
The list shows a part of the results, in another mix than the full data. The source made the active and inactive calls.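 The calls were made as follows: active = viability at or below 40%; inactive = viability above 40%.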

Assay: H69AR cell viability reduction – human, 86K library, primary screen (AID 598);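 also: multidrug resistant small cell line overexpressing MRP-1 efflux transporter; 100% = mean luminescence of untreated control wells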
Conditions: H69AR lung tumor viability, ATP luminescence, 72 h; at 10 µM; active compounds read low

Compound	viability
CN(C)CCOC(=O)C(O)(c1ccccc1)C1CCCCC1 (stereo unspecified)	inactive: 98%
CP(=O)(Nc1ccc2c(c1)OCCO2)Oc1ccccc1 (stereo unspecified)	inactive: 95%
Cc1ccccc1NP(C)(=O)Nc1ccccc1C	inactive: 90.5%
CP(=O)(Nc1ccccc1F)Oc1ccccc1 (stereo unspecified)	inactive: 93.2%
CCN(CC)CCCOC(=O)C(O)(c1ccccc1)C1CCCCC1 (stereo unspecified)	inactive: 83.8%
CP(=O)(Nc1ccccc1)Oc1ccc(F)cc1 (stereo unspecified)	inactive: 96.8%
COc1ccccc1OP(C)(=O)Nc1ccc(C)c(C)c1 (stereo unspecified)	inactive: 89.9%
Cc1nc2ccc3ccccc3c2o1.O=[N+]([O-])c1cc([N+](=O)[O-])c(O)c([N+](=O)[O-])c1	inactive: 100%
COc1ccc(OP(C)(=O)Nc2ccccn2)cc1 (stereo unspecified)	inactive: 97.3%
CN(C)CCOC(=O)C(O)(c1ccccc1)C1CCCC1 (stereo unspecified)	inactive: 104%
Cc1c(NP(C)(=O)Oc2ccc(C(C)C)cc2)c(=O)n(-c2ccccc2)n1C (stereo unspecified)	inactive: 89.4%
CP(=O)(Nc1ccccn1)Oc1ccccc1 (stereo unspecified)	inactive: 89.9%
COc1ccccc1OP(C)(=O)Nc1ccc(C)cc1C (stereo unspecified)	inactive: 78.8%
CCc1ccc(OP(C)(=O)O)cc1	inactive: 93.6%
COc1ccccc1OP(C)(=O)Nc1c(C)n(C)n(-c2ccccc2)c1=O (stereo unspecified)	inactive: 91.3%
CP(=O)(Oc1ccccc1)N1CCOC1=O (stereo unspecified)	inactive: 104%

Compound	viability
CC(C)(C)c1ccc(OP(C)(=O)O)cc1	inactive: 101%
CP(=O)(Nc1ccc(Cl)cc1)Oc1ccc(F)cc1 (stereo unspecified)	inactive: 106%
CP(=O)(OC12CC3CC(CC(C3)C1)C2)OC12CC3CC(CC(C3)C1)C2	inactive: 96.6%
CP(=S)(Nn1cnnc1)Oc1ccccc1 (stereo unspecified)	inactive: 86.1%
CP(=O)(NC(=O)Nc1ccccc1)Oc1ccccc1 (stereo unspecified)	inactive: 96.7%
CCOP(C)(=S)SCC(=O)NC(C)C(=O)O (stereo unspecified)	inactive: 91.7%
CP(=O)(Nc1ccccn1)Oc1ccc(Cl)cc1 (stereo unspecified)	inactive: 101%
COc1ccccc1OP(C)(=O)Nc1ccc(C)cc1 (stereo unspecified)	inactive: 82.8%
Cc1ccc(NP(C)(=O)Oc2ccccc2)c(C)c1 (stereo unspecified)	inactive: 101%
COc1ccc(OP(C)(=O)Nc2cccc(F)c2)cc1 (stereo unspecified)	inactive: 96.7%
Cc1cc(C)cc(OP(C)(=O)Nc2ccc(C)cc2C)c1 (stereo unspecified)	inactive: 95.5%
Cc1ccc(C)c(NP(C)(=O)Oc2ccccc2)c1 (stereo unspecified)	inactive: 97.1%
Cc1cc(C)cc(OP(C)(=O)Nc2ccccn2)c1 (stereo unspecified)	inactive: 100%
Cc1nc2ccc3ccccc3c2s1.O=[N+]([O-])c1cc([N+](=O)[O-])c(O)c([N+](=O)[O-])c1	inactive: 87.3%
COc1ccccc1OP(C)(=O)Nc1c(C)cccc1C (stereo unspecified)	inactive: 96.5%
